# Data: patent publication US5233050A, “Antimigraine alkyl indole” (Merck & Co., Inc., priority 1992, dated 1993)
# Chains of the proteins cited; added tags and fusions are not shown.
# UniProt P14842, whole entry: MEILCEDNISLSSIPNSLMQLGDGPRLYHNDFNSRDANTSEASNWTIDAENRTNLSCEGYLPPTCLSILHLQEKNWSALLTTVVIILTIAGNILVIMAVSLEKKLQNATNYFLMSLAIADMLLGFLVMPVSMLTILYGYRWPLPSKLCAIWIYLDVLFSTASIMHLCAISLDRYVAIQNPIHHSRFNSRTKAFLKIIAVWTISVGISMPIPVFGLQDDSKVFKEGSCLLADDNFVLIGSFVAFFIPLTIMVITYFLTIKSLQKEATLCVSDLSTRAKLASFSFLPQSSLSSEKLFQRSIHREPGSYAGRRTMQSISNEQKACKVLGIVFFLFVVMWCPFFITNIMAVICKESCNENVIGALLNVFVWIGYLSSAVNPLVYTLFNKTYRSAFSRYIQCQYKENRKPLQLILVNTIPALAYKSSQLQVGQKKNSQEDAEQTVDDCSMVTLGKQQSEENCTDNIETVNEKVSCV
# Biological target: T1, 5-HT2 (Rattus norvegicus, UniProt P14842)
# T1 construct: from tissue; host or cells: rat cortical membranes (inferred from the cited Titeler et al)
# Test: 5-HT2 radioligand binding assay
# Conditions: for comparison; read-out: pIC50, 5-HT2 (converted)
# Method: 5-HT1D radioligand binding assay was carried out according to Heuring and Peroutka (Heuring, R. E., and Peroutka, S. J., J. Neurosci., 7:894-903, 1987) with slight modifications as follows. Polypropylene tubes containing ^3 H-5HT (2 nM), cyanopindolol (100 nM), mesulergine (100 nM) and crude pig striatal membranes (10 mg wet weight per tube) in a final assay volume of 1 ml were used. All reagents and tissues were made up in […] Tris. HCl containing 0.1% ascorbate, 10 μM pargyline and 4 mM CaCl2 (pH 7.7 at room temperature). 5-HT (10 μM) was used to define non-specific binding. The incubation was initiated by the addition of membranes and carried out for 30 minutes at 37° C. Following incubation, membranes were rapidly filtered under vacuum through Whatmann GF/B filters using a Brandel Cell Harvester, followed by 2×3 ml washes with 50 mM Tris. HCl (pH 7.7 at room temperature). Bound radioactivity was determined by liquid scintillation spectrometry. 5-HT1A and 5-HT2 radioligand binding assays were performed according to Hall, et al., J. Neurochem., 44, 1685-1696, 1985 and Titeler, et al., Eur. J. Pharmacol., 117, 145-146, 1987, respectively.
structure (smiles),measurement,value
"CNS(=O)(=O)Cc1ccc2[nH]cc(CCN(C)C)c2c1 [sumatriptan, reference compound]",IC50,> 10 µM
